These results are taken from publication PMC9358681 (Biochemical pharmacology, 2022).

SMILES strings stand for the structures.

Assay [1] deals with T1, human A2BAR (Homo sapiens, UniProt P29275).
T1 construct: host or cells: CHO-spap
T1 sequence (P29275 1-332): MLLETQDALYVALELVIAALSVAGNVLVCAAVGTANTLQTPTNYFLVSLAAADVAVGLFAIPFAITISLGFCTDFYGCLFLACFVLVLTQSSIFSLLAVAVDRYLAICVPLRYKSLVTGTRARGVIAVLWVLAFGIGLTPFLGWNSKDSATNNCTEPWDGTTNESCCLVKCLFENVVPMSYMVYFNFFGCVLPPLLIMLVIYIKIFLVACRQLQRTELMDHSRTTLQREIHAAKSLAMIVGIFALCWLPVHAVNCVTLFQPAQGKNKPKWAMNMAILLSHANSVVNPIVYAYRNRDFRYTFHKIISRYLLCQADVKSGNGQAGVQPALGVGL
Description: [3H]PSB-603 displacement on CHO-spap-hA2BAR membranes. It is filed as binding. The following applies: […] [3H]PSB-603, 2 h, 25 °C.

The target in assay [2] is T1, human A2BAR. Description: [3H]PSB-603 competition association assay. It is filed as binding. Particulars: read-out: Kinetic KD (koff/kon).

`CCCn1c(=O)c2[nH]c(-c3ccc(OCC(=O)Nc4ccc(C#N)cc4)cc3)nc2n(CCC)c1=O` [Compound 13] gave a Ki in assay [1] of 1.78 nM. Moreover, in assay [2], the Kd is 0.61 ± 0.14 nM.
